Data taken from patent publication US6403605B1, “Methods for the normalization of sexual response and amelioration of long term genital tissue degradation” (Queen's University at Kingston, priority 1998, dated 2002).

Assay: Pharmacokinetic evaluation of apomorphine (FIG. 1, mean plasma concentrations after sub-cutaneous and sublingual doses)
Details: subcutaneous delivery

## CN1CCc2cccc3c2[C@H]1Cc1ccc(O)c(O)c1-3 [Apomorphine, (R)-5,6,6a,7-tetrahydro-6-methyl-(4H)-dibenzo[de,g]quinoline-10,11-diol]
  time required to reach maximum blood serum levels: approximately 15 minutes
